Measured values taken from patent EP0310305B1 (priority 1987, dated 1989).

Tested on: healthy male volunteers
Test: Cathartic effect in human volunteers
Conditions: oral, 20 µg in coconut oil (200 µl)

## CCCCC(F)C(=O)CC[C@H]1[C@H](O)CC(=O)[C@@H]1C/C=C\CCCC(=O)OC (some centres unmarked) [Test Drug 2, 13,14-dihydro-15-keto-16R,S-fluoro-prostaglandin]
  time of loose or explosive diarrhea after administration: 2 to 5 h
5 men
  men who complained of aerenterectasia and developed symptoms of loose or explosive diarrhea: 4 out of 5
